The record followed here is patent publication US9193744B2, “Heterocyclic nuclear hormone receptor modulators” (AbbVie Inc., priority 2012, dated 2015).

Protein sequences, listed by entry. Tags and fused reporters are not part of them.
UniProt P04150, whole entry: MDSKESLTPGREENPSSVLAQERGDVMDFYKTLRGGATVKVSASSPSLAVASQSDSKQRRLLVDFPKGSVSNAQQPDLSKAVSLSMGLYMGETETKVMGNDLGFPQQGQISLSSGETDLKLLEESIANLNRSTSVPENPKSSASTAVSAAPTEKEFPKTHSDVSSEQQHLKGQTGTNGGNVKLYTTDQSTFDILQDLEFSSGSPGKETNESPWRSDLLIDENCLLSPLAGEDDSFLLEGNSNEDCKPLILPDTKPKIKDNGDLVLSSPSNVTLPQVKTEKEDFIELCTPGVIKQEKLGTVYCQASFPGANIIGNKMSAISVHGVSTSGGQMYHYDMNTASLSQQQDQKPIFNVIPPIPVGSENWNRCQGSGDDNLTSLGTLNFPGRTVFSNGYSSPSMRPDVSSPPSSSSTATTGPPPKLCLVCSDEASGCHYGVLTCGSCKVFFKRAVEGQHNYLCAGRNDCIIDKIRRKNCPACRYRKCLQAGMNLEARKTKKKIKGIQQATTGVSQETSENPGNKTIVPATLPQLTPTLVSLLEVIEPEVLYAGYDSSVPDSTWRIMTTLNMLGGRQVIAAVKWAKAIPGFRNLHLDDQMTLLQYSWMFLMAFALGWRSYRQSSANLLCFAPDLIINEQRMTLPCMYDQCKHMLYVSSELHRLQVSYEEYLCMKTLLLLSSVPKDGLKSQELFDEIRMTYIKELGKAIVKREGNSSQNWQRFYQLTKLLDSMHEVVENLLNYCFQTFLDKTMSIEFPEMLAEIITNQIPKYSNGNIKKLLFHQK

In one experiment the test system is IL-6. The experiment in a line: A549 Cell Assay to Measure Inflammation Markers (inhibition of IL-1β-induced IL-6). The settings on record: read-out: A549 cell assay; A549 cells. Here is the method:
A549 Cell Assay to Measure Inflammation Markers
A549 cells were seeded (3E4 cells/well) in 96-well assay plates in culture medium (100 μL/well., F-12 K base media, supplemented with 10% FBS and 100 μ/mL-100 μg/mL Pen-Strep.) After overnight culture in an incubator set to 37° C., 4.9% CO2, and 90% humidity, media was removed from adherent cells by aspiration and replaced with 100 μL/well Assay Medium (F-12 K base media supplemented with 5% charcoal stripped calf sera and 100 U/mL-100 μg/mL Pen-Strep.) Compounds were prepared in DMSO and serial diluted (1:3, 1:4, or 1:5) with DMSO in Dilution Plate(s) to give 10 dilution points for each compound tested. Further dilution (1:250) of compound was made into assay medium and 50 μL/well diluted drug or DMSO/media control was applied to cells. After a 1 h pre-incubation in a temperature, CO2, and humidity controlled incubator, set to 37° C., 50 μL/well of 4 ng/mL IL-1β diluted in assay media, was applied to cultures. Assay plates, with a final volume of 200 μL/well and final concentrations of 0.1% DMSO and 1 ng/mL IL-1β were returned to incubator for a four h incubation period. Next, plates were spun at 183 g (1000 rpm in Beckman/Coulter Allegra 6KR centrifuge) for 10 min. Cell-free supernatant (150 μL/well) was collected and IL-6 was measured by MSD kit, following protocol of manufacturer, and using MSD SECTOR Imager 6000 instrument. […]

The target of experiment [1] is Glucocorticoid Receptor (GR) (Homo sapiens, UniProt P04150). The experiment in a line: GR Fluorescence Polarization Assay (PolarScreen Glucocorticoid Receptor Competitor Assay, Red). The note with it: read-out: GR binding; fluorescence polarization binding ranges. The procedure:
Fluorescence polarization assays were carried out using the PolarScreen™ Glucocorticoid Receptor Competitor Assay, Red from Invitrogen (P2893). The assay buffer was prepared according to the manufacturer's protocol and used to dilute the fluorescent glucocorticoid and GR. Compounds were prepared and serial diluted 1:4 in DMSO. Compound, fluorescent glucocorticoid and GR were added in a final volume of 20 μL and incubated overnight at 4° C. Fluorescent polarization was measured on the PerkinElmer Envision®. Fluorescence polarization binding ranges measured using GR Fluorescence Polarization Assay: […]
On the technique in general: Polarisation of emitted light reports the rotation of a fluorescent probe.

Some results are limits rather than exact numbers.

As for `CC[C@]1(O)CC[C@]2(Cc3ccccn3)c3cc4cnn(-c5ccc(F)cc5)c4cc3C(=O)CC[C@@H]2C1`, the IC50 (with IL-6; in experiment [1]) was 0.1 to 1 µM each time.

Turning to `COC[C@]1(O)CC[C@]2(Cc3ccccn3)c3cn4cnc(-c5ccc(F)cc5)c4cc3CCC[C@@H]2C1`, in experiment [1], the IC50 lay within 0.1 to 1 µM.

Consider `CC[C@]12CC[C@@](O)(COC)C[C@H]1CCOc1cc3c(cnn3-c3ccncn3)cc12`, for which the IC50 was more than 10 µM in the experiment with IL-6 and 1 to 10 µM in experiment [1].
